Source: IntAct's records for PubMed 35512704

B1: RAC-alpha serine/threonine-protein kinase (Homo sapiens), P31749 (parent)
chain: MSDVAIVKEGWLHKRGEYIKTWRPRYFLLKNDGTFIGYKERPQDVDQREAPLNNFSVAQCQLMKTERPRPNTFIIRCLQWTTVIERTFHVETPEEREEWTTAIQTVADGLKKQEEEEMDFRSGSPSDNSGAEEMEVSLAKPKHRVTMNEFEYLKLLGKGTFGKVILVKEKATGRYYAMKILKKEVIVAKDEVAHTLTENRVLQNSRHPFLTALKYSFQTHDRLCFVMEYANGGELFFHLSRERVFSEDRARFYGAEIVSALDYLHSEKNVVYRDLKLENLMLDKDGHIKITDFGLCKEGIKDGATMKTFCGTPEYLAPEVLEDNDYGRAVDWWGLGVVMYEMMCGRLPFYNQDHEKLFELILMEEIRFPRTLGPEAKSLLSGLLKKDPKQRLGGGSEDAKEIMQHRFFAGIVWQHVYEKKLSPPFKPQVTSETDTRYFDEEFTAQMITITPPDQDDSMECVDSERRPHFPQFSYSASGTA
partner: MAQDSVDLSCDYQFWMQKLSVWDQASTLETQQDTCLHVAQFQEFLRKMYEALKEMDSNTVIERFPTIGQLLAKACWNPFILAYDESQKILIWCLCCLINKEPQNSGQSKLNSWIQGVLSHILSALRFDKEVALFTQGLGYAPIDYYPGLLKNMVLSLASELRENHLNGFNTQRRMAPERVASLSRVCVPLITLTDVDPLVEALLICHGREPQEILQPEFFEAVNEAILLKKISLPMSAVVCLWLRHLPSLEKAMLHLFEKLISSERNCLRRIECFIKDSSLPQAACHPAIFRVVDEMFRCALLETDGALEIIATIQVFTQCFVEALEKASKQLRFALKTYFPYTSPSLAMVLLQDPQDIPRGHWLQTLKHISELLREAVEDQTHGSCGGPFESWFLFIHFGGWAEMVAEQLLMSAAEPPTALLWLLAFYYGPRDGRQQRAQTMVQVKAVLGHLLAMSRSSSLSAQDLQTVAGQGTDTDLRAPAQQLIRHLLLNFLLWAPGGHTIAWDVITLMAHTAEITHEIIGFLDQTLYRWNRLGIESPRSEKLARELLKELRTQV
B2: RAC-alpha serine/threonine-protein kinase (Homo sapiens), P31749 (parent)
chain: B1 chain
partner: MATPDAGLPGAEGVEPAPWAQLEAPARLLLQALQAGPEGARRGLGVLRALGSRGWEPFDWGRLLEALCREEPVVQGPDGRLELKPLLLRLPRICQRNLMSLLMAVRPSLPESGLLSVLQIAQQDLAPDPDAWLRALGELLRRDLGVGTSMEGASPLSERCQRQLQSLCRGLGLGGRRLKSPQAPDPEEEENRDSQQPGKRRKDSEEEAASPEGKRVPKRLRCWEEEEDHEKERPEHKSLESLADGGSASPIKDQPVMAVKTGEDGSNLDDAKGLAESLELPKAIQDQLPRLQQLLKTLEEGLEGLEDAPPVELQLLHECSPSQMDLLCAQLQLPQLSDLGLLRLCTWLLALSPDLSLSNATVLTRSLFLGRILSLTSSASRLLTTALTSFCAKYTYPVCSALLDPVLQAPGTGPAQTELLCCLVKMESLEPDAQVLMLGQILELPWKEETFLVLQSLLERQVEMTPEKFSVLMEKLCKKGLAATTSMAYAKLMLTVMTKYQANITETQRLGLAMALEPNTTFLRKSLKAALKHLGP
B3: RAC-alpha serine/threonine-protein kinase (Homo sapiens), P31749 (parent)
chain: B1 chain
partner: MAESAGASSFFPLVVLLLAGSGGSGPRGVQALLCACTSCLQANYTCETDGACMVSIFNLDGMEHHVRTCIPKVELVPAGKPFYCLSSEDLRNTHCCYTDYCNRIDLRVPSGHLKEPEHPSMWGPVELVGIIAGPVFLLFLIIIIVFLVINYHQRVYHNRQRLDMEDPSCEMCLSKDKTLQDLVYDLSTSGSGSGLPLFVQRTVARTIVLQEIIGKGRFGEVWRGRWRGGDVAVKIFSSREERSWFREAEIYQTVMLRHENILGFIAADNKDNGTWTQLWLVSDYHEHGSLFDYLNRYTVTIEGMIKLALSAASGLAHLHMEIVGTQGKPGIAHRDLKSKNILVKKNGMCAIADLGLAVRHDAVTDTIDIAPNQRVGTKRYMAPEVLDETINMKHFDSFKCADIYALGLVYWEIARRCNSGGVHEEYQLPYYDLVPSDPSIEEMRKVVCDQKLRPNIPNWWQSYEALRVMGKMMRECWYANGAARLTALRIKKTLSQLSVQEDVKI
B4: RAC-alpha serine/threonine-protein kinase (Homo sapiens), P31749 (parent)
chain: B1 chain
partner: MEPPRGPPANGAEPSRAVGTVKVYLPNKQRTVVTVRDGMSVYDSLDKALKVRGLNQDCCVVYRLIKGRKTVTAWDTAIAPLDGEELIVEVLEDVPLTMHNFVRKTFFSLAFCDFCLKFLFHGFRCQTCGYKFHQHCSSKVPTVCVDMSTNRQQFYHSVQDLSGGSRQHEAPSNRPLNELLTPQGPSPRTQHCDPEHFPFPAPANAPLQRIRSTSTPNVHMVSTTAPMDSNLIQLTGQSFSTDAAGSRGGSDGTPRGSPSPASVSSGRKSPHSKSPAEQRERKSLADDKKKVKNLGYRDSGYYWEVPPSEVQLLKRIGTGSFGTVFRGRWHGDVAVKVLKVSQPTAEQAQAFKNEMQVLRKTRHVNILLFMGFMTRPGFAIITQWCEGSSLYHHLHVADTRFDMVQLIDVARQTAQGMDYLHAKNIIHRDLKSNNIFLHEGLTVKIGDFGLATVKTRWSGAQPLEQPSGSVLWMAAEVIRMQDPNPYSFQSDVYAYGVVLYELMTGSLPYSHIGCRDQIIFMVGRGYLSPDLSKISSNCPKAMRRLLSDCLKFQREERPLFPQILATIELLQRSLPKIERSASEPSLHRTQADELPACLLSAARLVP
B5: RAC-alpha serine/threonine-protein kinase (Homo sapiens), P31749 (parent)
chain: B1 chain
partner: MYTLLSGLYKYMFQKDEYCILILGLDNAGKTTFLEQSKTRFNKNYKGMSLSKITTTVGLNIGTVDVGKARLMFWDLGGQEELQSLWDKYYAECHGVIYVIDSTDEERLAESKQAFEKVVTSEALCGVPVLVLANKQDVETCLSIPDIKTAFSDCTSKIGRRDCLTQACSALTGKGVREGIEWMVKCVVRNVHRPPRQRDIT
B6: RAC-alpha serine/threonine-protein kinase (Homo sapiens), P31749 (parent)
chain: B1 chain
partner: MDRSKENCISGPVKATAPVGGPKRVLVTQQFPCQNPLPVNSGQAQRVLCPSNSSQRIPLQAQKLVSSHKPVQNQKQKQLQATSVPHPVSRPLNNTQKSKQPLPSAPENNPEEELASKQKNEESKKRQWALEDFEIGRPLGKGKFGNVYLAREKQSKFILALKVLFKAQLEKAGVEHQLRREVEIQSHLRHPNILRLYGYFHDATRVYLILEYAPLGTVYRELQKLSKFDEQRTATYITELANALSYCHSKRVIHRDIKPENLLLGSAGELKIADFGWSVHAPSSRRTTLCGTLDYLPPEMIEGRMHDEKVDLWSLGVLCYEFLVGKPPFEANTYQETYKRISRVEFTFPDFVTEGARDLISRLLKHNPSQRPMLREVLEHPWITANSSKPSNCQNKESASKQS

Variants of: B1
Conditions: with fancc_human FANCC

Q: For E17K, which “effect of a mutation on the interaction” value is on record?
A: causing an interaction

Variants of: B1
Conditions: with fancc_human FANCC
Remark: another data set of the same source

Q: Which “effect of a mutation on the interaction” value does the source give for E17K here?
A: increasing interaction strength

Variants of: B2
Conditions: with fance_human FANCE

Q: With E17K as the variant, how does the “effect of a mutation on the interaction” value read?
A: causing an interaction

Variants of: B2
Conditions: with fance_human FANCE
Remark: another data set of the same source

Q: For E17K, which “effect of a mutation on the interaction” value is on record?
A: increasing interaction strength

Variants of: B3
Conditions: with acv1b_human ACVR1B

Q: With E17K as the variant, how does the “effect of a mutation on the interaction” value read?
A: with no effect

Variants of: B4
Conditions: with araf_human ARAF

Q: For E17K, which “effect of a mutation on the interaction” value is on record?
A: with no effect

Variants of: B5
Conditions: with arfrp_human ARFRP1, Q13795

Q: E17K was tested. Which “effect of a mutation on the interaction” value did it give?
A: with no effect

Variants of: B6
Conditions: with aurka_human AURKA

Q: For E17K, which “effect of a mutation on the interaction” value is on record?
A: with no effect
